Molecules are shown by their SMILES.

The subject of this experiment is GTL16 cells. In words: GTL16 cell viability assay (CellTiter Glo). Particulars: read-out: GTL-16 Proliferation IC50.
`Cn1cc(-c2cnc3ccc(Sc4nnc5c(F)cc(-c6cnn(C)c6)cn45)cc3c2)cn1` [Reference Example No. 66, 6-(8-fluoro-6-(1-methyl-1H-pyrazol-4-yl)-[1,2,4]triazolo[4,3-a]pyridin-3-ylthio)-3-(1-methyl-1H-pyrazol-4-yl)quinoline, reference compound]: the IC50 turned out to be 3 nM.
Turning to `Cn1cc(-c2ccc3nnc(Sc4ccc5ncccc5c4)n3c2)cn1` [Reference Example No. 63, 6-(6-(1-methyl-1H-pyrazol-4-yl)-[1,2,4]triazolo[4,3-a]pyridin-3-ylthio)quinoline, reference compound], the IC50 was 8 nM.
`CC1COCCN1c1cnc2ccc(Sc3nnc4ccc(-c5cnn(C)c5)cn34)cc2c1` (centres unmarked) [Example 59, 3-Methyl-4-(6-(6-(1-methyl-1H-pyrazol-4-yl)-[1,2,4]triazolo[4,3-a]pyridin-3-ylthio)quinolin-3-yl)-morpholine]: the IC50 stood at 11 nM.
With `C/C(=N\OCCO)c1ccc2nnc(Sc3ccc4ncc(N5CCOCC5)cc4c3)n2c1` [Example 78, (E)-1-(3-((3-Morpholin-4-yl-quinolin-6-yl)thio)-[1,2,4]triazolo[4,3-a]pyridin-6-yl)ethanone O-(2-hydroxyethyl)oxime], the IC50 was 3 nM.
For `C/C(=N\OCCO)c1ccc2nnc(Sc3ccc4ncc(CN5CCOCC5)cc4c3)n2c1` [Example 80, (E)-1-(3-((3-(Morpholin-4-yl-methyl)quinolin-6-yl)thio)-[1,2,4]triazolo[4,3-a]pyridin-6-yl)ethanone O-(2-hydroxyethyl)oxime] the value was 125 nM.
